Patent publication US10111937B2, “Method of reducing accumulation of intracellular tingible body macrophages” (THE REGENTS OF THE UNIVERSITY OF MICHIGAN, priority 2008, dated 2018)

Target: T1, recombinant mouse LPLA2 (Mus musculus, UniProt Q8VEB4)
T1 sequence (Q8VEB4 34-412): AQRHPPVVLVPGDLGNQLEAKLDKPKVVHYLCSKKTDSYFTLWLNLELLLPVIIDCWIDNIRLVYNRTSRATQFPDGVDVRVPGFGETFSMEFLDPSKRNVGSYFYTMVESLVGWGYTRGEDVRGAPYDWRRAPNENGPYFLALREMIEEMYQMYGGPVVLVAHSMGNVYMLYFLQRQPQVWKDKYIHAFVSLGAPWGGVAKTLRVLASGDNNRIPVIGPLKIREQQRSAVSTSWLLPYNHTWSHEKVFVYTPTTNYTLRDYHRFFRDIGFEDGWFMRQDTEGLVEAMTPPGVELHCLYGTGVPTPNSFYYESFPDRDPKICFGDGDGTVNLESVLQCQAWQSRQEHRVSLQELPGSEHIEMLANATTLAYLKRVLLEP
Assay: 1-O-acylceramide synthase (transacylase) activity of recombinant LPLA2 on liposomes, 1-O-oleoyl-NAS by HPTLC
Type: biochemical
Conditions: DOPC/sulfatide/NAS liposomes pre-incubated with drug 5 min at 37° C., pH 4.5; FIG. 12C
Experimental: To address this possibility, the 1-O-acylceramide synthase activity of LPLA2 was studied in liposomes in which the anionic lipid content was varied by the addition of sulfatide, a negatively charged, sulfate containing glycolipid that is not a substrate for LPLA2. Di-octanoyl-PC (DOPC) was used as the liposomal substrate. The reaction mixture contained 48 mM sodium citrate (pH 4.5), 10 μg/ml BSA, liposomes (127 μM phospholipid) and 14.5 ng/ml of recombinant mouse LPLA2 in 500 μl of total volume. Liposomes consisting of DOPC/NAS (3:1, molar ratio) or DOP/sulfatide/NAS (3:0.3:1, molar ratio) were incubated with the enzyme for 5, 10, 15, 30 and 45 min at 37° C. The reaction products were extracted and separated by an HPTLC plate using a solvent system consisting of chloroform/acetic acid (9:1, v/v). The reaction product, 1-O-oleoyl-NAS, quantified by scanning the plate, was plotted against time (FIG. 11A). […]
The reaction mixture contained 0-500 mM NaCl, 48 mM sodium citrate (pH 4.5), 10 μg/ml BSA, liposomes (127 μM phospholipid) and either 14.5 ng/ml of recombinant mouse LPLA2 (+) or 7.8 μg protein/ml of the soluble fraction obtained from MDCK cells transfected with mouse LPLA2 (+) in 500 μl of total volume. […] One of the products, 1-O-oleoyl-NAS, quantified by scanning the plate, was plotted against NaCl concentration (FIG. 12A). […]

LPLA2 enzyme activity (1-O-oleoyl-NAS formation) with increasing drug concentration: inhibited the enzyme activity
Compound: CCCCc1oc2ccccc2c1C(=O)c1cc(I)c(OCCN(CC)CC)c(I)c1 [amiodarone]
